Patent US9655906B2, “Tricyclic indazole compound, method of preparation and pharmaceutical composition containing it” (AZIENDE CHIMICHE RIUNITE ANGELINI FRANCESCO A.C.R.A.F S.p.A., priority 2010, dated 2017)
pKd: −log10 of the molar value.

Sequences of proteins named here, by UniProt entry; tags and fusion partners are left off. Residues count along the entry.
UniProt P28335, 33-458: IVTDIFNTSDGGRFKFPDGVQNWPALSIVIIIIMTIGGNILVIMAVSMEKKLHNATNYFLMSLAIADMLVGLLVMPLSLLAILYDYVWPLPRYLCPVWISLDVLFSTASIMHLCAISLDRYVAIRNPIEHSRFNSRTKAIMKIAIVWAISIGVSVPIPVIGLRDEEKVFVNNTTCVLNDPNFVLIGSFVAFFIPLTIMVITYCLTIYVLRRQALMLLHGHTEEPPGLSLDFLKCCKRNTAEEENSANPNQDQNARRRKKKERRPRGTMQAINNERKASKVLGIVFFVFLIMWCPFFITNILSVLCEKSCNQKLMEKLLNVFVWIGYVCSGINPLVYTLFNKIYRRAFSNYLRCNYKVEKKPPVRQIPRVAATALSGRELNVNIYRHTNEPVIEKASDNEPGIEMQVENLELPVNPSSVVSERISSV

Molecular target: T1, human 5-HT2C receptor (Homo sapiens, UniProt P28335)
T1 construct: expressed in transfected cells
Test: Test B: binding to human 5-HT2C serotonin receptor, [3H]-mesulergine displacement
Details: membranes from CHO-K1 cells expressing human 5-HT2C; read-out: Kd of radioligand (saturation studies)
Description: 69: 1449-1458. In particular, binding to the human serotonin 5-HT2C receptor was performed using, as starting material, a preparation of membranes from stable recombinant CHO-K1 cell line expressing the human 5-HT2C receptor. […] The non-specific binding was measured in the presence of 1 μM mianserin. The assay was conducted in Tris-HCl 50 mM buffer (pH 7.4 at 37° C.), 0.1% Ascorbic Acid, 10 μM Pargyline, with incubation for 1 hour at 25° C. The test compounds were dissolved in DMSO, then diluted in buffer (final DMSO concentration 0.01%) and plated on 96-well plates The compounds were tested in duplicate in an 8-points concentration response curve (in a Log scale ranging from 10^−12 to 10^−5 M). SB 242084 was used as reference compound. […] Then the filters were washed with buffer solution and oven-dried for 30 minutes at 45° C. The scintillation liquid was added to each well, and at least 16 hours later the radioactivity was measured for 1 minute using a TopCount (Packard). The IC50 values for each compound were calculated using non-linear regression analysis (GraphPad PRISM software) and the inhibition constants Ki were determined using the equation described by Cheng Y. and Prussof W. H. […] Pharmacol. 22: 3099-3108.

CN1C[C@@H](NS(=O)(=O)N(C)C)C[C@@H]2c3cccc4c3c(cn4C)C[C@H]21 [[^3H]-mesulergine, reference compound]
pKd: 8.96
